Test system: rats (Slc-ddY, male, 5 weeks old)
Assay: Acute toxicity (Test Example 7)
Assay type: in vivo
Conditions: one week
Method: Groups of two rats (Slc-ddY, male, 5 weeks old) were used as test animals.
The test animals orally received 1,000, 500, 250, 125 or 62.5 mg/kg of the test substance suspended in an aqueous solution of 5% gum arabic or subcutaneously injected with 500, 250, 125 or 62.5 mg/kg of the test substance suspended in sterilized injectable distilled water. One week after administration, general conditions and weight of the animals were examined. On the final day, the animals were sacrificed and their organs including lymph nodes were observed.

[1] = s.c., 500 to 6.25 mg/kg (so in the source)

CC=CC=CC=CC(=O)NC(CC(=O)NC(C(=O)C1C(=O)NC(=O)C1C)C(C)C)c1ccccc1 (stereo not shown) [UFC-N11]
general physical conditions and organs at the sacrifice (oral, 1000 to 62.5 mg/kg): no visible disorder was observed | mortality (oral, 1000 to 62.5 mg/kg): the test animals did not die | general physical conditions and organs at the sacrifice [1]: no visible disorder was observed | mortality [1]: the test animals did not die

— patent US4868203A, “Bacterial substance and pharmaceutical composition thereof” (Kabushikikaisha Ueno Seiyaku Oyo Kenkyujo, priority 1986, dated 1989)
